Bridge positions count the residues as written; N and C are the ends. Square brackets hold non-standard residues; d marks the D form. Peptide text beside a SMILES is read from it. * marks the point of attachment. X2 = CN1C[C@H](CSCC(=O)*)C[C@@H]2c3cccc4[nH]cc(c34)C[C@H]21; 4Pal = N[C@@H](Cc1ccncc1)C(=O)O
What was measured:
hSSTR2 = molecular target: T1, hSSTR2 (Homo sapiens, UniProt P30874); test: Intracellular calcium mobilization assay (FLIPR Calcium 4), hSSTR2; type: cell-based; settings: receptor not named; fits hSSTR2 values
T1 construct: host or cells: 'Cells expressing hSSTR2'

Amino acid sequences for entries named in this document (tags omitted). A change or cut given only in a name is not applied to a line headed by its entry.
UniProt P30874: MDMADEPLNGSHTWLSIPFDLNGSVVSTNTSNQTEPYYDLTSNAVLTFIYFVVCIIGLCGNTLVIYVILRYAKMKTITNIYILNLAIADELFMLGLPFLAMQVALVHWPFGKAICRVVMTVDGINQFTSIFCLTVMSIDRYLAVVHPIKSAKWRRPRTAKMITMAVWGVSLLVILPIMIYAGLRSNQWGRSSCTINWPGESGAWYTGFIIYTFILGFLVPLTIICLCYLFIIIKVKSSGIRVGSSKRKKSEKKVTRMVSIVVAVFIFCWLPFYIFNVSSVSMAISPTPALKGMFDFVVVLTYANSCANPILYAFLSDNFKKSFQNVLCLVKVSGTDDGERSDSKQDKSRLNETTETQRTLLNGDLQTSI
UniProt P14416, whole entry: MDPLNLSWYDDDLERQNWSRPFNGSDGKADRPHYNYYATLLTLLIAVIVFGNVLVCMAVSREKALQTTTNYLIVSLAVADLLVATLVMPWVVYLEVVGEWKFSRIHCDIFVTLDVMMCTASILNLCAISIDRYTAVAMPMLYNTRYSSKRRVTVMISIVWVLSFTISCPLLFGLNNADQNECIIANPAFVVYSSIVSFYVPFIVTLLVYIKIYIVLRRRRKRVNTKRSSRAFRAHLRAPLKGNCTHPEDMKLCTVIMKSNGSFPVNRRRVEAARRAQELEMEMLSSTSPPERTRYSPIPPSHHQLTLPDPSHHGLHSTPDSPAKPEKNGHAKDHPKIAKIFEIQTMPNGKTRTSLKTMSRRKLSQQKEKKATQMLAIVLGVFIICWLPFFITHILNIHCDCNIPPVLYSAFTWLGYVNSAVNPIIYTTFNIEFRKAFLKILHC

hDRD2 = molecular target: T2, hDRD2 (Homo sapiens, UniProt P14416); test: Intracellular calcium mobilization assay (FLIPR Calcium 4), hDRD2; type: cell-based
T2 construct: host or cells: 'Cells expressing ... hDRD2'

| SMILES | EC50 fold lower than Reference Compound A (hSSTR2) | EC50 (hDRD2) [nM] | Emax (hDRD2; read-out: hDRD2 % Emax ± SEM) [%] |
| --- | --- | --- | --- |
| C[C@@H](O)[C@@H]1NC(=O)[C@H](CCCCN)NC(=O)[C@@H](Cc2c[nH]c3ccccc23)NC(=O)[C@H](Cc2ccncc2)NC(=O)[C@H](Cc2ccccc2)NC(=O)[C@H](CCCNC(=N)N)NC(=O)[C@H](NC(=O)CSC[C@@H]2C[C@@H]3c4cccc5[nH]cc(c45)C[C@H]3N(C)C2)CCCCNC(=O)[C@H](Cc2ccccc2)NC1=O [Compound 24, Dop1-cyclo(DLys-Arg-Phe-4Pal-DTrp-Lys-Thr-Phe)] (X2-[dK]RF[4Pal][dW]KTF; lactam 1-C) | about 9 fold |  |  |
| C[C@@H](O)[C@@H]1NC(=O)[C@H](CCCCN)NC(=O)[C@@H](Cc2c[nH]c3ccccc23)NC(=O)[C@H](Cc2ccccc2)NC(=O)[C@H](Cc2ccccc2)NC(=O)[C@H](CCCNC(=N)N)NC(=O)[C@H](NC(=O)CSC[C@@H]2C[C@@H]3c4cccc5[nH]cc(c45)C[C@H]3N(C)C2)CCCCNC(=O)[C@H](Cc2ccccc2)NC1=O [Compound 44, Dop1-cyclo(DLys-Arg-Phe-Phe-DTrp-Lys-Thr-Phe)] |  | 232 ± 33.1 | 59.9 ± 0.5 |
